Source: PubChem BioAssay (NCATS)
Several values for one entry are separate records, joined by “and”; a condition that tells them apart may be missing. Equal entries are not always repeated. Only a part is listed here, and it is no random draw. Results filed as inconclusive are left out. Activity calls are given as the source filed them. Calls come from the whole dose curve; as a rule, active = well fitted inhibition curve with a large enough effect; inconclusive = small, poorly fitted or top-dose-only effect; inactive = flat fitted curve, though single readings scatter.

Key:
KB-3-1 = assay: Cytotoxic Profiling of Annotated Libraries Using Quantitative High-Throughput Screening (AID 1296008); conditions: Five cell lines viability, CellTiter-Glo ATP luminescence, 48-72 h, active compounds read low
Procedure, shortened: (§1)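 Compounds were pin-transferred onto cells and incubated 48 or 72 hr at 37 degree Celsius, 95% humidity. CellTiter-Glo was added, plates sat 10 min at room temperature, then ATP-coupled luminescence was imaged as the viability read-out.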

HaCat [1] = assay: as above; conditions: Five cell lines viability, CellTiter-Glo ATP luminescence, 48-72 h; active compounds read low
Procedure, shortened: as §1

NIH3T3 = assay: as above; conditions: Five cell lines viability, CellTiter-Glo ATP luminescence, 48-72 h; active compounds read low
Procedure, shortened: as §1

HEK293 = assay: as above; conditions: Five cell lines viability, CellTiter-Glo ATP luminescence, 48-72 h, active compounds read low
Procedure, shortened: as §1

CRL-7250 = normal cell line; assay: qHTS assay to identify novel small-molecules to repurpose for Merkel cell carcinoma treatment (AID 1296009); conditions: MCC and control cell lines, CellTiter-Glo viability, 72 h; at 92 µM (top of the series)
Procedure, shortened: (§2)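 Luminescence from CellTiter-Glo, read 10 min after addition at room temperature, reported viability following a 72 hr, 37 degree celsius treatment with NPC or MIPE compounds in titration; values normalized to plate controls.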

HACAT [2] = assay: as above; conditions: MCC and control cell lines, CellTiter-Glo viability, 72 h; at 92 µM (top of the series)
Procedure, shortened: as §2

MCC-13 = assay: as above; conditions: MCC and control cell lines, CellTiter-Glo viability, 72 h; at 92.7 µM (top of the series)
Procedure, shortened: as §2

MCC-26 = assay: as above; conditions: MCC and control cell lines, CellTiter-Glo viability, 72 h; at 92.7 µM (top of the series)
Procedure, shortened: as §2

MKL-1 = assay: as above; conditions: MCC and control cell lines, CellTiter-Glo viability, 72 h; at 92.7 µM (top of the series)
Procedure, shortened: as §2

MKL-2 = assay: as above; conditions: MCC and control cell lines, CellTiter-Glo viability, 72 h; at 92.7 µM (top of the series)
Procedure, shortened: as §2
% is set by controls: 0 for no effect and ±100 for the full control effect.
Note: nearly all actives have a fitted effect of over 60% in size.

CCC(=O)N(c1ccccc1)C1CCN(CCc2ccccc2)CC1
inactive: max response (KB-3-1) 8.06%

CCC(=O)N(c1ccccc1)C1(COC)CCN(CCc2cccs2)CC1
inactive: max response (HaCat [1]) -5.63% | max response (KB-3-1) -11.9% | max response (NIH3T3) -13.8%

CN(CCCl)CCCl
inactive: max response (HEK293) -91.4% and -9.09% | outcome (HaCat [1]) | max response (KB-3-1) 41.1% and 3.51% | max response (NIH3T3) -45.1% | outcome (NIH3T3)

CCC(=O)N(c1ccccc1)C1(COC)CCN(CCn2nnn(CC)c2=O)CC1
inactive: max response (HEK293) -22.9% | outcome (HaCat [1]) | max response (KB-3-1) -0.781% | max response (NIH3T3) -9.68% | outcome (CRL-7250) | outcome (HACAT [2]) | activity change, negative = cytotoxicity (MCC-13) -1.89% | activity change, negative = cytotoxicity (MCC-26) -14.9% | activity change, negative = cytotoxicity (MKL-1) -20.3% | activity change, negative = cytotoxicity (MKL-2) -17.5%
